Experimental findings from patent publication US7119095B2, “Pharmaceutically active compounds and methods of use thereof” (Dana Farber Cancer Institute, priority 2001, dated 2006) are described below.

Broadly, the IC50 is the concentration at which inhibition is half-maximal. High values mean a need for much substance, low ones inhibition by little substance.

The target in the test is T1, M. avium DHFR (Mycobacterium avium, UniProt O30463).
T1 sequence (O30463 1-181): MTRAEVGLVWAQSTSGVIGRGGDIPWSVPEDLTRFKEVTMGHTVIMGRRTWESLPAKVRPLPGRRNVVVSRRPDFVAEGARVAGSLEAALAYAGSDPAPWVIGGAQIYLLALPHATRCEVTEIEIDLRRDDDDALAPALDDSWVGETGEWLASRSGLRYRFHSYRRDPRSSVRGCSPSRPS
As to the kind of experiment: Inhibition of M. avium DHFR (literature assay). Format: biochemical. The following applies: compounds 3a-k.

The molecule `CCCCCCCCOc1ccc(OC)c(Cc2cnc(N)nc2N)c1` [Compound 3d, 2,4-Diamino-5-(2-methoxy-5-octyloxybenzyl)pyrimidine] registered an IC50 of 3.3 µM. In other words, the single-digit micromolar range. In the case of `COc1ccc(OCCCCCCCCC(=O)O)cc1Cc1cnc(N)nc1N` [Compound 3k], the IC50 was found to be 0.15 µM.
